Assay results reported in article PMC11419155 (bioRxiv, 2024).

Biological target: T1, recombinant HAstV2 capsid spike, histidine-tagged (Human astrovirus 2, Oxford strain …)
T1 chain: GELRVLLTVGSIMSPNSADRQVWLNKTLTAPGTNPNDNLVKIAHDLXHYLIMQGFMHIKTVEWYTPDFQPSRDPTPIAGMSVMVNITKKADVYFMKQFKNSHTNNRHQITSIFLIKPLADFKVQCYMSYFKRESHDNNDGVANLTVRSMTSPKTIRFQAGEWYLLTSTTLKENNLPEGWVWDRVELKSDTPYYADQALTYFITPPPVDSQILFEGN
Assay: BLI

B1: recombinant Fab 4B6 (Fab, V domains shown)
VH: QVQLKESGPGLVAPSQSLSITCTVSGFSLTSYGVHWVRQPPGKGLEWLGVIWADGSTNYNSALMSRLSISKDNSKSQVFLKMNSLQTDDTAMYYCARWTYGDYFDYWGQGTTLTVSS
VL: DIQMTQTTSSLSASLGDRVTISCSASQGISNYLNWYQQKPDGTVKLLIYYTSSLHSGVPSRFSGSGSGTDYSLTISNLEPEDIATYYCQQYSKLPYTFGGGTKLEIK
Question: For B1, which Kd is on record?
Answer: The Kd was 161 nM.
